Measurements taken from article PMC12568646, “Enzymatic combinatorial synthesis of E-64 and related cysteine protease inhibitors” (Nature Chemical Biology, 2025).

Target: cathepsin B (Homo sapiens, UniProt P07858)
Assay: fluorogenic Z-Phe-Arg-AMC assay
Type: biochemical
Conditions: 40 μM Z-Phe-Arg-AMC, citrate phosphate pH 5.5, 5 mM DTT, 37 °C; covalent, irreversible

- IC50: 1.4 nM
SMILES: CCCCCCCNC(=O)[C@@H](NC(=O)[C@H]1O[C@@H]1C(=O)O)C1CCCC1
